Test results as given in patent US10881750B2, “Sentinel lymph node marker capable of multi-mode imaging” (NATIONAL CANCER CENTER, priority 2010, dated 2021).

Legend:
[1] = foot pad injection 80 uCi/50 uL, 60 minutes after injection, three white mice, FIG. 7

## [Tc-99m]Tc-indocyanine green-Evans blue-human serum albumin
Foot pad injection 100 uCi, 60 minutes after injection, NanoSPECT
  uptake of the marker in SPECT gamma images: only the injected area and the lymph node had a strong uptake of the marker, while other organs did not show any uptake of the marker
Foot pad injection, white mice
  time the marker can remain in the sentinel lymph node: at least 1 hour
[1]
  uptake level (radioactivity of each tissue, percentage relative to injection amount): significantly higher in the sentinel lymph node than in other organs
